Here are results for one compound from patent publication US20160375033A1, “METHODS OF TREATMENT WITH TASELISIB” (Genentech, Inc., priority 2015, published 2016).

The chains behind the UniProt entries cited, without tags or fusion partners. Where a name states a change or a piece, a line headed by the entry shows the natural chain unless it says otherwise.
UniProt O00329: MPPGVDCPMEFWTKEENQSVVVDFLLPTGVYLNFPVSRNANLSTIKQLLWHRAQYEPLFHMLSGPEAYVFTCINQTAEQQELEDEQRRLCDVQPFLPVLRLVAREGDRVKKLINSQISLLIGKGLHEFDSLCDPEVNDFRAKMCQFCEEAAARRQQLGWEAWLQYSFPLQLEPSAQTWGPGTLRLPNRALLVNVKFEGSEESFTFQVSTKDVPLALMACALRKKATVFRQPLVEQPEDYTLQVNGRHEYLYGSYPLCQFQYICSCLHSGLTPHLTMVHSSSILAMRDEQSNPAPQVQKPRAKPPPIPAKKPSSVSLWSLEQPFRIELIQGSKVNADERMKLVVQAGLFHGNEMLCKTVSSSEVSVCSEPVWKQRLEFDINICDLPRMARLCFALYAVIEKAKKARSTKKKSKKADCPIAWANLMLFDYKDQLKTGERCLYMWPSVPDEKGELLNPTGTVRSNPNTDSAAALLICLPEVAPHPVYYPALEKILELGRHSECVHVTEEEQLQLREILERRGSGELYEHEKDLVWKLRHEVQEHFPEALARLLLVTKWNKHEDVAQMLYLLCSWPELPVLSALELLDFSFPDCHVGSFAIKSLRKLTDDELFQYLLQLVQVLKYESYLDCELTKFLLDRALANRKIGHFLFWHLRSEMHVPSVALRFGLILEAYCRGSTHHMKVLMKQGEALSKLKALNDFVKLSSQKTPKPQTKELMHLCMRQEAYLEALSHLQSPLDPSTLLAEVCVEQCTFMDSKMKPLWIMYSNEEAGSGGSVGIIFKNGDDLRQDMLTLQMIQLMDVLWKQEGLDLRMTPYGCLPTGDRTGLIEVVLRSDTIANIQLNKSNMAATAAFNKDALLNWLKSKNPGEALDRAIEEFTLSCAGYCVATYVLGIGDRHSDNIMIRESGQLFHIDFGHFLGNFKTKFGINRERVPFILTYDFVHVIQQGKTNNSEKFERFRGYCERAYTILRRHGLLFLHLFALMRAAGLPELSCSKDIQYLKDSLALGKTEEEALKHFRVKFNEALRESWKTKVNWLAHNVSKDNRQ
UniProt P42336, whole entry H1047R: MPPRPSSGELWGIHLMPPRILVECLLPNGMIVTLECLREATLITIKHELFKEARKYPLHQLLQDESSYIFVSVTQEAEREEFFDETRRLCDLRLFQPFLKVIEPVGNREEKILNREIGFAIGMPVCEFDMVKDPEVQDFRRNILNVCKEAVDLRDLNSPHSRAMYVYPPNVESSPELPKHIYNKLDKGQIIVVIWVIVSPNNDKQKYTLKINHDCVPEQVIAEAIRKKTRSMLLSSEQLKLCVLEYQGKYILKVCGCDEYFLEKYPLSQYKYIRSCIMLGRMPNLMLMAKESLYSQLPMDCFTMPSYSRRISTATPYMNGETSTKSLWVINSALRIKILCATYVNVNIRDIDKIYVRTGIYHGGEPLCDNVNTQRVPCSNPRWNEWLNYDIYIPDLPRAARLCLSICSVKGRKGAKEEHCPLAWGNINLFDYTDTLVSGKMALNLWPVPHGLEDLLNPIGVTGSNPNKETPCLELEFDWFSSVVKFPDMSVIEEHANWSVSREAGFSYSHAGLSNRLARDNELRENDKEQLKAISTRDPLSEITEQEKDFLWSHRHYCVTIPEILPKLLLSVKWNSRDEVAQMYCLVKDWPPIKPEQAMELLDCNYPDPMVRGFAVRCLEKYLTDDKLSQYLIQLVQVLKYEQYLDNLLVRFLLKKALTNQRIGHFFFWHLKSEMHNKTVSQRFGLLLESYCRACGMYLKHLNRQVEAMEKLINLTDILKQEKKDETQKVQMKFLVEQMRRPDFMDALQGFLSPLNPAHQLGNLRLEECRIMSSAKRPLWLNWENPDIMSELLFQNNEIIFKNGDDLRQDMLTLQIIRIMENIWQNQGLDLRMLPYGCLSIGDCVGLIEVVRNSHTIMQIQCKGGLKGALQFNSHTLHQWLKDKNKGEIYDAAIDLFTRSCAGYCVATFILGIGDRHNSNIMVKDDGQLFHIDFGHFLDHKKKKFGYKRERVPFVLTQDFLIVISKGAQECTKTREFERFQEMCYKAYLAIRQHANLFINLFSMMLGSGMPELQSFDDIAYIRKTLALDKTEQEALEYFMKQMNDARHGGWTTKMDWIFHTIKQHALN
UniProt P42336, whole entry E545K: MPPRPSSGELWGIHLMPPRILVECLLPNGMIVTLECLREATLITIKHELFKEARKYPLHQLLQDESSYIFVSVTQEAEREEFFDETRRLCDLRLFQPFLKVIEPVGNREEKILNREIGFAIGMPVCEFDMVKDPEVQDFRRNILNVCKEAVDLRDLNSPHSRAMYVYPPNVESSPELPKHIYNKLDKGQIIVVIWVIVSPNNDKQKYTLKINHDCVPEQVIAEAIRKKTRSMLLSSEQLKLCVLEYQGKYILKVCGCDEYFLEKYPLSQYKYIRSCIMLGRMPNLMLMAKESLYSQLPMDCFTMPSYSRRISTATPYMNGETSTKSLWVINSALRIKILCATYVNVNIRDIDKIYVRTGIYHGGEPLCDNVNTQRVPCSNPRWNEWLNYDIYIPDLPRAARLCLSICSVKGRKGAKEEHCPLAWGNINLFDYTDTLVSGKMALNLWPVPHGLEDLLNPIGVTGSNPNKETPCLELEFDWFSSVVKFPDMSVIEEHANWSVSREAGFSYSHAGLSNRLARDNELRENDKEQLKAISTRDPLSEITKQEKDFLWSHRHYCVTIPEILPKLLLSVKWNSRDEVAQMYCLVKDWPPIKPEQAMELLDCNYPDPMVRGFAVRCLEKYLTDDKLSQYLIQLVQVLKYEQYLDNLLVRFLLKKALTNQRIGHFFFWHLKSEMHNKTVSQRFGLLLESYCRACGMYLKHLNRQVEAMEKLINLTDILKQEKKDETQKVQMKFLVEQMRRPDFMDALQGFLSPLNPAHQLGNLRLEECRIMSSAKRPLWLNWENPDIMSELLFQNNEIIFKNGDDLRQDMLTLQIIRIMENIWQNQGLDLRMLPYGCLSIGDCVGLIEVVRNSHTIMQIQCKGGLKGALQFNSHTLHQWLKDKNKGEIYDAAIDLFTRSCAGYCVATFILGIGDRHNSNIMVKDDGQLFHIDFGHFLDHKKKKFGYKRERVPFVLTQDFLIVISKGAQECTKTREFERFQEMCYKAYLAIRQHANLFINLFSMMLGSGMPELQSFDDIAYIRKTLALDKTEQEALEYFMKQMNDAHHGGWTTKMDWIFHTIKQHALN
UniProt P42336, whole entry: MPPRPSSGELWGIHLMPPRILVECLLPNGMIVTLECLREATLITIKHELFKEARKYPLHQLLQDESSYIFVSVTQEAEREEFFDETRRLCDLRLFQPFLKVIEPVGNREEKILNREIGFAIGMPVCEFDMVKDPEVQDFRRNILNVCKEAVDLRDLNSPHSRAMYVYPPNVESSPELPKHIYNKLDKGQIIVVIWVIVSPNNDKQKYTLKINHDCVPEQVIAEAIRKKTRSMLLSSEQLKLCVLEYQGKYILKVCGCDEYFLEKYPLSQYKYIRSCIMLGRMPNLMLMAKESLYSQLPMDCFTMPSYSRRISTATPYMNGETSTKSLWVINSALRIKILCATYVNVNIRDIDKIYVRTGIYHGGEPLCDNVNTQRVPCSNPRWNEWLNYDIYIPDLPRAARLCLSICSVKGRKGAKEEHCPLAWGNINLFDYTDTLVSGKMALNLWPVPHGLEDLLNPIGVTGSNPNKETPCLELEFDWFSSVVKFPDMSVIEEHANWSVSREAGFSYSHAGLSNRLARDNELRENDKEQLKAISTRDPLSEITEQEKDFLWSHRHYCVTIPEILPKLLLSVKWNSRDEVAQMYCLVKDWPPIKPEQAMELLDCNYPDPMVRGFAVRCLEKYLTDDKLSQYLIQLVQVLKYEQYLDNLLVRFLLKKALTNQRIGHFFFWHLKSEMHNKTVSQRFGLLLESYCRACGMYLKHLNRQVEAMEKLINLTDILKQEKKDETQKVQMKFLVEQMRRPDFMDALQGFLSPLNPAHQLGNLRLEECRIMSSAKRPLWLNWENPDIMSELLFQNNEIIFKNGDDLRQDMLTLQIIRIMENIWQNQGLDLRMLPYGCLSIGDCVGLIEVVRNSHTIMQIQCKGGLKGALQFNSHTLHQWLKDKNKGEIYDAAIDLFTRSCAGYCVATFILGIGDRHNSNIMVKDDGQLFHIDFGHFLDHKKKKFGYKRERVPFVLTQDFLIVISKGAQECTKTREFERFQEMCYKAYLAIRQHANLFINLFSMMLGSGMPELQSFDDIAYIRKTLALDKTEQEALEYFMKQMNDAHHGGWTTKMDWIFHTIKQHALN

For experiment [1], the target named is PI3K δ (Homo sapiens, UniProt O00329). As to the kind of experiment: PI3K binding assay (Ki), PI3K delta.
Experiment [2] concerns the target mut-p110αH1047R (Homo sapiens, UniProt P42336, H1047R). As to the kind of experiment: PI3K binding assay (Ki), mutant p110 alpha H1047R.
Experiment [3] concerns the target mut-p110αE545K (Homo sapiens, UniProt P42336, E545K). As to the kind of experiment: PI3K binding assay (Ki), mutant p110 alpha E545K.
Experiment [4] addresses PI3K alpha (Homo sapiens, UniProt P42336). To be noted: cited from earlier work.

One may read the Ki as the dissociation constant of the complex between target and ligand, obtained from inhibition or displacement. In the case of `Cc1nc(-c2cn3c(n2)-c2ccc(-c4cnn(C(C)(C)C(N)=O)c4)cc2OCC3)n(C(C)C)n1` [GDC-0032, 2-(4-(2-(1-isopropyl-3-methyl-1H-1,2,4-triazol-5-yl)-5,6-dihydrobenzo[f]imidazo[1,2-d][1,4]oxazepin-9-yl)-1H-pyrazol-1-yl)-2-methylpropanamide], the Ki in experiment [1] is 0.092 nM; in experiment [2], 0.11 nM; in experiment [3], 0.14 nM; in experiment [4], 0.2 nM.
